Measured values published in ChEMBL document CHEMBL4823289, “Conformational-Analysis-Guided Discovery of 2,3-Disubstituted Pyridine IDO1 Inhibitors” (ACS Med Chem Lett, 2021).

Protein sequences, listed by entry. Tags and fused reporters are not part of them. Lines headed by an entry give the natural chain unless they say otherwise; changes in a name come on top.
UniProt P28776: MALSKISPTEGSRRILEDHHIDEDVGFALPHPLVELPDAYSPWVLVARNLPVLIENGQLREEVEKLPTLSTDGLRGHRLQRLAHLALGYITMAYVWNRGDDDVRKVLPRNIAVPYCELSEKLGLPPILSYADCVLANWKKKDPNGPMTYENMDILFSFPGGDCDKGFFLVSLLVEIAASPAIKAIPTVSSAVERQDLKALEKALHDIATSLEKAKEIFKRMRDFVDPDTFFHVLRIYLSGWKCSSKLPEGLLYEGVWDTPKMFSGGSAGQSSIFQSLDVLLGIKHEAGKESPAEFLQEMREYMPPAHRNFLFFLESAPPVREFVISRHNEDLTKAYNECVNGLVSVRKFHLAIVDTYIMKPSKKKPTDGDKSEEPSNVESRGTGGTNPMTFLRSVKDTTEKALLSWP

Target: Indoleamine 2,3-dioxygenase 1 (Mus musculus) (UniProt P28776)
Assay: In vivo inhibition of IDO1 in mouse xenografted with human SK-OV-3 cells assessed as reduction in tumor kynurenine AUEC at 60 mg/kg, po QD for 5 days measured up to 24 hrs after dosing relative to control
Type: functional, organism-based
Design: scale not given: the % may be the effect or the level left
Conditions: time 5.0 day

Activity: 57%
Compound: CC[C@@H](NC(=O)c1ccc(OC)nc1)[C@H]1CC[C@@H](c2ccnc(OC)c2C(F)F)CC1
